The values below are quoted from earlier work in patent publication US11325944B2 (priority 2017, dated 2022).

Amino acid sequences for entries named in this document (tags omitted). A change or cut given only in a name is not applied to a line headed by its entry.
UniProt P41145: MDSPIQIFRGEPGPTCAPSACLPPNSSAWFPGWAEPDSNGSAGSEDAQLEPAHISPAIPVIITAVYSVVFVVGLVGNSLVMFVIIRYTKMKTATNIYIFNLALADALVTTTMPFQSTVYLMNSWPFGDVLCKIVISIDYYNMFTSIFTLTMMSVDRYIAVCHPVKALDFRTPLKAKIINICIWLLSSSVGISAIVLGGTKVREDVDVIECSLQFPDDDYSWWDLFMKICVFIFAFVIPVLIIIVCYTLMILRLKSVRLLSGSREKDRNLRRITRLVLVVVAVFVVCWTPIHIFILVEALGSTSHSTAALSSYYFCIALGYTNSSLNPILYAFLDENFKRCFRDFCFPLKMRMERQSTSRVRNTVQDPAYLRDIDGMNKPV

This data set deals with KOR (Homo sapiens, UniProt P41145).

For the substance “cyclo [CJ-15,208, cyclo [Phe-D-Pro-Phe-Trp]]”, the “selectivity for KOR over MOR and DOR” value is “selective activity against the kappa opioid receptor (KOR) over mu opioid receptors (MOR) and delta opioid receptors (DOR)”. The “KOR antagonism in vitro” value (in vitro) is “antagonize KOR in vitro”.
